How the values were obtained:
[1] = target: Delta-type opioid receptor (Mus musculus, UniProt P32300); assay: In vitro opioid receptor delta mediated mouse vas deferens (MVD) assay; format: tissue-based
Mu-type opioid receptor = Mu-type opioid receptor (Rattus norvegicus, UniProt P33535); assay: Displacement of [3H]- DAGO from opioid receptor mu in rat brain membrane; format: cell membranes

The chains behind the UniProt entries cited, without tags or fusion partners.
UniProt P32300, whole entry: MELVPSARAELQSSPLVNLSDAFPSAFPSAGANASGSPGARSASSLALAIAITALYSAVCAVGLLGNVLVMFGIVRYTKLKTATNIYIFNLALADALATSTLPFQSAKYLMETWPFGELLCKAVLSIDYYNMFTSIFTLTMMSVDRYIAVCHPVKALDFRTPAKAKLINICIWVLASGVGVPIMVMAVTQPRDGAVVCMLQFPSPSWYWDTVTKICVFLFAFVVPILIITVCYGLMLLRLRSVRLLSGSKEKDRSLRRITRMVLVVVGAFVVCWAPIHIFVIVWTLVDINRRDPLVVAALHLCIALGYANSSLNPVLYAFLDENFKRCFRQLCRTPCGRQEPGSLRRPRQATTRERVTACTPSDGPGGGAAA
UniProt P33535, whole entry: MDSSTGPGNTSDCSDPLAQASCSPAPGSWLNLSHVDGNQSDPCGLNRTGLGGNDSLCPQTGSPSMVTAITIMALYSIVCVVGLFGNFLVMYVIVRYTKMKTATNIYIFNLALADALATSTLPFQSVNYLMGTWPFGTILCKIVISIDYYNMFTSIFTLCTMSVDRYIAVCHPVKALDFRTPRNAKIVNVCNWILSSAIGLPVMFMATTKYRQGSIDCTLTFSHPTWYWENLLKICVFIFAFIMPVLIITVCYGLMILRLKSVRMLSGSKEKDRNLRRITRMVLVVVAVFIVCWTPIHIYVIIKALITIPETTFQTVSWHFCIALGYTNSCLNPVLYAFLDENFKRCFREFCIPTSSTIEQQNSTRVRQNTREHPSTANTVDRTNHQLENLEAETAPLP

Structure (SMILES) | IC50 [1] | IC50 (Mu-type opioid receptor)
CC(C)[C@H](NC(=O)[C@H](CC(=O)O)NC(=O)[C@H](Cc1ccccc1)NC(=O)[C@H](C)NC(=O)[C@@H](N)Cc1ccc(O)cc1)C(=O)N[C@H](C(=O)NCC(N)=O)C(C)C | 0.14 nM | –
CC(C)[C@H](NC(=O)[C@H](CCC(=O)O)NC(=O)[C@H](Cc1ccccc1)NC(=O)[C@H](C)NC(=O)[C@@H](N)Cc1ccc(O)cc1)C(=O)N[C@H](C(=O)NCC(N)=O)C(C)C | 0.75 nM | 3200 nM

From ChEMBL document CHEMBL1125696, “Synthesis and structure-activity relationships of deltorphin analogues” (J Med Chem, 1991)
